Molecular target: T1, DQA1*0501/DQB1*0201 (Homo sapiens, UniProt P01909+P01920, C70S)
T1 construct: HAT-DQA1*05011-181(C47S)LZFos; DQB1*0201LZ1-190JunBSP; made in house
Assay: Direct LOCI peptide-MHC-II binding assay, DQA1*0501/DQB1*0201

The chains behind the UniProt entries cited, without tags or fusion partners. A line that says so, or that is headed by a name, gives the form on record, which may keep a tag or linker.
UniProt P01920, with tags, fused parts or gaps with the stated changes: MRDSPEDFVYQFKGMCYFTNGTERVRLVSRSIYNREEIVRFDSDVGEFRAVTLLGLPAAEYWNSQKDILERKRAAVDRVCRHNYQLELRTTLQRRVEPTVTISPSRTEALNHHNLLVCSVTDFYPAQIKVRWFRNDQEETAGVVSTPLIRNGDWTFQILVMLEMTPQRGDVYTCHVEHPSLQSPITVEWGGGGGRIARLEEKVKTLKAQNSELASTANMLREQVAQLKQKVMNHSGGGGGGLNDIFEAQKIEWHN

Compound: CSCC[C@H](NC(=O)[C@@H](N)Cc1ccccc1)C(=O)N[C@@H](CO)C(=O)N[C@@H](CCCNC(=N)N)C(=O)N[C@@H](CCCCN)C(=O)N[C@@H](CC(C)C)C(=O)N[C@@H](Cc1c[nH]cn1)C(=O)N[C@@H](CCCNC(=N)N)C(=O)N[C@@H](Cc1ccc(O)cc1)C(=O)O [Hantaan]
- Kd: > 5 µM

Compound: CSCC[C@H](NC(=O)[C@@H](N)Cc1c[nH]c2ccccc12)C(=O)N[C@@H](C)C(=O)N[C@@H](CCCNC(=N)N)C(=O)N[C@@H](CCCNC(=N)N)C(=O)N[C@@H](Cc1c[nH]cn1)C(=O)N[C@@H](C)C(=O)N[C@@H](CCC(=O)O)C(=O)N[C@@H](CCCNC(=N)N)C(=O)O [Brucella]
- Kd: > 5 µM

From publication PMC2690590, “Functional recombinant MHC class II molecules and high-throughput peptide-binding assays” (Immunome Research, 2009)
